Results reported in PubChem BioAssay AID504322 (Emory University Molecular Libraries Screening Center, 2011).
pIC50: −log10 of the molar value.

Test system: CHOP reporter cell assay, percent of control
Test: CHOP reporter inhibitor potency, dose response, cell-based (AID 504322);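 further: CHO cells carrying a CHOP reporter stimulated with tunicamycin to induce ER stress; potency is for inhibition of the stress-induced reporter signal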

Row | SMILES | pIC50
1 | CN[C@H]1C[C@H]2O[C@@](C)([C@H]1OC)n1c3ccccc3c3c4c(c5c6ccccc6n2c5c31)C(=O)NC4 | > 6.80
2 | CCCCCCCCNC(C)C(O)c1ccc(SC(C)C)cc1 (configuration not stated) | 5.60
